Laboratory results reported in patent publication US6930118B2, “3-Oxadiazol-5-yl-1-aminoalkyl-1h-indole derivatives” (Amrad Operations Pty. Ltd., priority 2001, dated 2005).

Protein sequences, listed by entry. Tags and fused reporters are not part of them.
UniProt P20272, whole entry: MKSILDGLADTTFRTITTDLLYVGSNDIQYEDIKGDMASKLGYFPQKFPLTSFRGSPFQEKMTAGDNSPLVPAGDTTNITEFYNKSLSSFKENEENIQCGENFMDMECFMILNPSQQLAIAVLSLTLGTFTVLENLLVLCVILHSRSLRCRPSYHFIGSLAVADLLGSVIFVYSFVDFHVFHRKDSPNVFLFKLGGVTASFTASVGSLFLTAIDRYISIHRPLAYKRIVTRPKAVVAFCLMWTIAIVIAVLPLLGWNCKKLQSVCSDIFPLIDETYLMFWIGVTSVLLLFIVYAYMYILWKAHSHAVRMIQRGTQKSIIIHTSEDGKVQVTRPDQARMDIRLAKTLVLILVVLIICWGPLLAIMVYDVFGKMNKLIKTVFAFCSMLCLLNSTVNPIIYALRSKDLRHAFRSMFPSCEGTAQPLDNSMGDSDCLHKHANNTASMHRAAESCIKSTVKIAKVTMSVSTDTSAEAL

Experiments:
CB1 receptor = molecular target: T1, CB1 receptor (Rattus norvegicus, UniProt P20272); experiment: Radioligand binding assay, rat cerebellum membranes
T1 construct: the cerebellum was dissected away from the rest of the brain, weighed and homogenised; from tissue; host or cells: Sprague Dawley rat cerebellum membranes
Method: (§1) The affinity of compounds at cannabinoid receptors is routinely assessed using ligand binding assays known to those skilled in the art. Radioligand binding assays were conducted using rat cerebellum or rat spleen. The cerebellum of the rat is known to express predominantly, if not exclusively, the CB1 receptor subtype (20,21). Thus, binding constants obtained from these studies are characterised by a single affinity value, as only one receptor type is labelled. […] In contrast, biphasic binding curves in the spleen characterised by two affinity constants represent the profile of compounds showing selectivity for one receptor subtype over another. […]
(§2) Ligand binding assays were performed in polypropylene tubes in a total volume of 1 ml containing Tris-HCl buffer, a final concentration of 1 mg/ml BSA, and varying concentrations of drugs. […] Vials were left to stand overnight before the radioactivity was determined using a Model 1409 DSA Liquid Scintillation counter (EG&E Wallac, Gaithersburg, Md., U.S.A.).
(§3) The resulting radioligand binding curves were analyzed by nonlinear regression using the program PRISM 3.0 (GraphPad Software, San Diego, Calif.) in order to derive ligand affinity estimates for the cannabinoid receptor(s).

CB2 receptor = molecular target: T2, CB2 receptor (Rattus norvegicus, UniProt Q9QZN9); experiment: Radioligand binding assay, rat spleen membranes
T2 sequence (Q9QZN9 1-343 limits assumed): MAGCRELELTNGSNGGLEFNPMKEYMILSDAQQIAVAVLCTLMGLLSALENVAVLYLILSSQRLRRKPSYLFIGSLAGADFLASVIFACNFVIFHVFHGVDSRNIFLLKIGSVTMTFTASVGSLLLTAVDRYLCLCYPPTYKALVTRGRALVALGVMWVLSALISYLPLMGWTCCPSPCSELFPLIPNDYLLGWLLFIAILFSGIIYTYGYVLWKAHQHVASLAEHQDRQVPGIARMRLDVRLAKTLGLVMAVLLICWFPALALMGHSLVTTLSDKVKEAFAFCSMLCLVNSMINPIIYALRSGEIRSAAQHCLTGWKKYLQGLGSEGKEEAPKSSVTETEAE
Method: as §1, §2, §3

For CCCCC/C=C\C/C=C\C/C=C\C/C=C\CCCC(=O)NCCO [Anandamide, reference compound], the IC50 (CB1 receptor) was 1000 nM and the IC50 (CB2 receptor) was under 1000 nM.
